Measured values taken from ChEMBL document CHEMBL2010643 (Bioorg Med Chem Lett, 2012).

The chains behind the UniProt entries cited, without tags or fusion partners. Where a name states a change or a piece, a line headed by the entry shows the natural chain unless it says otherwise.
UniProt Q9H2X6: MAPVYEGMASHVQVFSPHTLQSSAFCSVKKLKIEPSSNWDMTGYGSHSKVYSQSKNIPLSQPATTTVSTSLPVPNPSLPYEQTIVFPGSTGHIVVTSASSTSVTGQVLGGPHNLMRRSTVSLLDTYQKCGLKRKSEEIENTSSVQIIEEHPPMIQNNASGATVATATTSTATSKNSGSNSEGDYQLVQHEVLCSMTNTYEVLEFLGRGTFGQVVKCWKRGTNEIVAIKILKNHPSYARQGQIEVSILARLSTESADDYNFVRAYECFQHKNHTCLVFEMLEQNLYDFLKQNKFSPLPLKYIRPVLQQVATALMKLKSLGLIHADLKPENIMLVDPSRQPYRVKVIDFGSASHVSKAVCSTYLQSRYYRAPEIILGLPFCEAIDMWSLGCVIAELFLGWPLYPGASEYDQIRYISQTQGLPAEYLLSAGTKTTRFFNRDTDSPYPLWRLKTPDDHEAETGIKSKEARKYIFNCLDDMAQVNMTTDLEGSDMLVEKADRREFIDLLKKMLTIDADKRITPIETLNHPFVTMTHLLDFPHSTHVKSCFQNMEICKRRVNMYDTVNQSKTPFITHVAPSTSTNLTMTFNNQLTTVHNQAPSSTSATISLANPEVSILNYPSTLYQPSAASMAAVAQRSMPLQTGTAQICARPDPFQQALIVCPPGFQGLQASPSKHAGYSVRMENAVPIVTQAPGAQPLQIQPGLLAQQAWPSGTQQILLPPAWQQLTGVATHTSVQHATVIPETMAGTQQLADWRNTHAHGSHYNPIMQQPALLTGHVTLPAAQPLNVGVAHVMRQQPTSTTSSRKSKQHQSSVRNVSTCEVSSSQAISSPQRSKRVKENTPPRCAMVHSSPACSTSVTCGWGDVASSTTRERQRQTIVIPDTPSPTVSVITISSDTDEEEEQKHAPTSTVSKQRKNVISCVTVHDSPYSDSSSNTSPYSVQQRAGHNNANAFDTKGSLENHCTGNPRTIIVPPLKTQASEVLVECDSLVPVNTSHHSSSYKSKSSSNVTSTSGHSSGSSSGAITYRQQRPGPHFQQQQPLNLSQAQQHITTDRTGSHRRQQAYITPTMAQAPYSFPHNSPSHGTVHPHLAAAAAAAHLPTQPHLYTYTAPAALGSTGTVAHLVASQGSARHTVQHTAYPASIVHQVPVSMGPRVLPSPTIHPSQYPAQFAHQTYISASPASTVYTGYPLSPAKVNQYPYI
UniProt P54760: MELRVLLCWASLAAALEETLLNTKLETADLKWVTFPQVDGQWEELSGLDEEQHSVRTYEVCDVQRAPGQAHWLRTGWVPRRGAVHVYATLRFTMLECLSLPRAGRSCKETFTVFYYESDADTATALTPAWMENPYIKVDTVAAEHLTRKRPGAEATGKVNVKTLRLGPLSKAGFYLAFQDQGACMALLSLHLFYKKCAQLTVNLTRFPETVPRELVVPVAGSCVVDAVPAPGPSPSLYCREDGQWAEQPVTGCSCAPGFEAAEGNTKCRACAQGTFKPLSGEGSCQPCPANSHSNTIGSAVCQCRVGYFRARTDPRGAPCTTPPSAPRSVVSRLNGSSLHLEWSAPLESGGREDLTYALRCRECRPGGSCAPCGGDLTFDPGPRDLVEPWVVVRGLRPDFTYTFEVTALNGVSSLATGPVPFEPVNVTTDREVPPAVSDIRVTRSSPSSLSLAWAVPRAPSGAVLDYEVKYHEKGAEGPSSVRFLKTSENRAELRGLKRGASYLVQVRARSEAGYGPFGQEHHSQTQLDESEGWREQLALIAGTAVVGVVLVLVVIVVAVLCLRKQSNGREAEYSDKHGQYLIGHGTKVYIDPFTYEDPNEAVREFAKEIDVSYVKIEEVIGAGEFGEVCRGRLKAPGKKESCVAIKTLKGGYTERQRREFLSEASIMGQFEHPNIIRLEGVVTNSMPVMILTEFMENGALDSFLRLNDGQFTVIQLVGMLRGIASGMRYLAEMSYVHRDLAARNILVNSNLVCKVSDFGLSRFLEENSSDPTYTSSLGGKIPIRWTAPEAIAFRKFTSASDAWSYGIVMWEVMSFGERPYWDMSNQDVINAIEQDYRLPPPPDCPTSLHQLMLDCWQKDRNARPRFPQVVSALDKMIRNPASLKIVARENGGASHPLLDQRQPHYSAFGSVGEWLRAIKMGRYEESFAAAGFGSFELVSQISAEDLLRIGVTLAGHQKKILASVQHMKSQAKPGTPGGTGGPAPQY
UniProt Q14012: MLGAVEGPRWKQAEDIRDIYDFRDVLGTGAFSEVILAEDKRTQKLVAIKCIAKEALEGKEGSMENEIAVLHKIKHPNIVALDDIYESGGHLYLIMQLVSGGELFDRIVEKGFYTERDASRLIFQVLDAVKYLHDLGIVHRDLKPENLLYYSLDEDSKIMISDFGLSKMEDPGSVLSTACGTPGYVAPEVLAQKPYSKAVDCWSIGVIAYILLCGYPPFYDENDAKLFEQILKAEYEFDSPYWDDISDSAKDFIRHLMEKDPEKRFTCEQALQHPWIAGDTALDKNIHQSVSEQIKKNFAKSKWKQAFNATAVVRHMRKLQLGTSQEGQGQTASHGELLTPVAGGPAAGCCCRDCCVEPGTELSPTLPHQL
UniProt Q14164: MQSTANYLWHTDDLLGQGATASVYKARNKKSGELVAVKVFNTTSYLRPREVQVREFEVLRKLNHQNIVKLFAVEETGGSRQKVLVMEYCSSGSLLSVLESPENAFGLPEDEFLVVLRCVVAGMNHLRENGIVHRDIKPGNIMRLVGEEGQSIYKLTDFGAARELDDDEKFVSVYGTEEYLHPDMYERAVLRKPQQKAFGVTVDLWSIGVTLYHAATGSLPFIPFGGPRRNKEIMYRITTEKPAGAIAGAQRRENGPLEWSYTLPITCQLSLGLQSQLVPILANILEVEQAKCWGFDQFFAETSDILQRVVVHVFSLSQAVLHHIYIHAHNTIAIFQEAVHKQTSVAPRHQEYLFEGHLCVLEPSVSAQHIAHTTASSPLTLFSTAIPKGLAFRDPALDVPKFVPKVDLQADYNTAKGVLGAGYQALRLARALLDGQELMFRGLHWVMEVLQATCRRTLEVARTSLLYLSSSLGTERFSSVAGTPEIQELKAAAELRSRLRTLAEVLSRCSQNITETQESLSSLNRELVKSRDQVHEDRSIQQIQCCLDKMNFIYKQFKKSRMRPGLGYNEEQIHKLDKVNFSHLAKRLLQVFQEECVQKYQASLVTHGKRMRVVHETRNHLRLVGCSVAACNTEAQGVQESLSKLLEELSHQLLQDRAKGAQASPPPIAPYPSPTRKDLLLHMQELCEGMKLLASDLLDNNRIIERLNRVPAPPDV
UniProt P54753: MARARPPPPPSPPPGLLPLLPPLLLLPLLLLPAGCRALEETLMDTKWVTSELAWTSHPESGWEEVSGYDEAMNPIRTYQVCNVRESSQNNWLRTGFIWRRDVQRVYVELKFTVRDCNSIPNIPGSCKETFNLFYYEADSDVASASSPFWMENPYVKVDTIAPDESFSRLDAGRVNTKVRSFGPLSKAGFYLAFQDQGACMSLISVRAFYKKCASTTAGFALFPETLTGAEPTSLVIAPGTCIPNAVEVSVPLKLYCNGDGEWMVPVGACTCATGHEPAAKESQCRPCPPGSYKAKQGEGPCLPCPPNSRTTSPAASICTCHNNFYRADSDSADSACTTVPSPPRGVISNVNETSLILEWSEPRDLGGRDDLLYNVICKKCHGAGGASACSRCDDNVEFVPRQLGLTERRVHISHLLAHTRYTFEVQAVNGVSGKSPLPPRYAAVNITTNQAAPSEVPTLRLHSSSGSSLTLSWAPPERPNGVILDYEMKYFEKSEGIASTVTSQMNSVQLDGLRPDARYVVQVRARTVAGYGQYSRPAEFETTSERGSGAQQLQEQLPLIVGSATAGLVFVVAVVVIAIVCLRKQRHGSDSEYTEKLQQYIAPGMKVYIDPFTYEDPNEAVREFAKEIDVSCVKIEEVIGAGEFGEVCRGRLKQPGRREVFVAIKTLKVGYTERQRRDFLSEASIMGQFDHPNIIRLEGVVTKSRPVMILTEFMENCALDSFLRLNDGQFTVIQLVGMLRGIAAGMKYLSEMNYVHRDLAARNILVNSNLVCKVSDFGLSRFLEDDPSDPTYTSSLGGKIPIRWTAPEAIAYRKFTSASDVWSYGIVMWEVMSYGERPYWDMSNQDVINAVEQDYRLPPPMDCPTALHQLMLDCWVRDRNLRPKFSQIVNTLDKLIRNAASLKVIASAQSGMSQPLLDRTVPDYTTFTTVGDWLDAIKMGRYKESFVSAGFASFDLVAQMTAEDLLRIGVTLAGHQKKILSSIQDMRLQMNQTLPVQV
UniProt Q8N4C8: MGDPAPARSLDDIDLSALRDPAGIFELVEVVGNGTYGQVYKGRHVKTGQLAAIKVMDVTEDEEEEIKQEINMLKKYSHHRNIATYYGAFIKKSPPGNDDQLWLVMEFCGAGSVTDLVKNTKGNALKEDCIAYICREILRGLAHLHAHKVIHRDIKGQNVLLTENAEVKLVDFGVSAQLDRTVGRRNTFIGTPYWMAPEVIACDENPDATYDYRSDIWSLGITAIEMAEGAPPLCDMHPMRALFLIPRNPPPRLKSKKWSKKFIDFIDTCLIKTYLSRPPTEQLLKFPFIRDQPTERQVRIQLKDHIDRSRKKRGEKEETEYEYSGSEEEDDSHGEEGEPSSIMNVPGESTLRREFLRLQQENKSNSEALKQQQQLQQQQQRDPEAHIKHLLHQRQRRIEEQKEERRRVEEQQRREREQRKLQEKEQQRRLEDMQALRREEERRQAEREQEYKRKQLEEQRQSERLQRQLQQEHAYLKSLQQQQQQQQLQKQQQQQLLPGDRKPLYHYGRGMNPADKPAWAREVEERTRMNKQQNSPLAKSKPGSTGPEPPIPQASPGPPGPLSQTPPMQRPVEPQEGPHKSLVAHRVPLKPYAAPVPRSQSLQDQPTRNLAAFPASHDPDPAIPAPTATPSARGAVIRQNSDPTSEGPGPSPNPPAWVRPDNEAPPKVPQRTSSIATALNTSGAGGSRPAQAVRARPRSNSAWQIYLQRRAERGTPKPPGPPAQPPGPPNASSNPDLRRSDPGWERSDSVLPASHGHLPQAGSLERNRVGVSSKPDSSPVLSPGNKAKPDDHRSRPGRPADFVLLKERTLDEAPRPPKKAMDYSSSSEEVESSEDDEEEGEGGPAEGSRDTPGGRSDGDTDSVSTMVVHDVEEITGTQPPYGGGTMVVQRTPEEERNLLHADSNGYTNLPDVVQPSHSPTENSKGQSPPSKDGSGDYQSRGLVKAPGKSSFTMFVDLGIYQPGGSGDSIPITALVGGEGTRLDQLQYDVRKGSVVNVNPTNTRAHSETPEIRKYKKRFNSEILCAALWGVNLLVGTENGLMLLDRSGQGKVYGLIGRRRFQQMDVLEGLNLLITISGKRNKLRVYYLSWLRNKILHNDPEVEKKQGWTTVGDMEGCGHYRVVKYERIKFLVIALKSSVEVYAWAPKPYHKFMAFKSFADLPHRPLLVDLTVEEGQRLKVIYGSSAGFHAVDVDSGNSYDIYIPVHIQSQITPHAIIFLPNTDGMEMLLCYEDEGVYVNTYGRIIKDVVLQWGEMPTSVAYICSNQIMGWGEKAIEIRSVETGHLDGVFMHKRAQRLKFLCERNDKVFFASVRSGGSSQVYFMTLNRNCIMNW
UniProt P27361, whole entry: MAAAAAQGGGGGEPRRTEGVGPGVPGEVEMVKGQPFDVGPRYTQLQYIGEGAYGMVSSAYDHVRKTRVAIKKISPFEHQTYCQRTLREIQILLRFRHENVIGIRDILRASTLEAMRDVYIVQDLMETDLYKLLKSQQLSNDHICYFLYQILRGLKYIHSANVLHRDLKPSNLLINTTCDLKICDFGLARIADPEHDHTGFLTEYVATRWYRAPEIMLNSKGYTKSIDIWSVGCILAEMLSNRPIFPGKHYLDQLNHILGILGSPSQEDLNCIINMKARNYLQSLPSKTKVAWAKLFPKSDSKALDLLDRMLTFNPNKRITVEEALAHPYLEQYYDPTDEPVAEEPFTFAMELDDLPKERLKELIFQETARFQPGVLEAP
UniProt Q9BUB5: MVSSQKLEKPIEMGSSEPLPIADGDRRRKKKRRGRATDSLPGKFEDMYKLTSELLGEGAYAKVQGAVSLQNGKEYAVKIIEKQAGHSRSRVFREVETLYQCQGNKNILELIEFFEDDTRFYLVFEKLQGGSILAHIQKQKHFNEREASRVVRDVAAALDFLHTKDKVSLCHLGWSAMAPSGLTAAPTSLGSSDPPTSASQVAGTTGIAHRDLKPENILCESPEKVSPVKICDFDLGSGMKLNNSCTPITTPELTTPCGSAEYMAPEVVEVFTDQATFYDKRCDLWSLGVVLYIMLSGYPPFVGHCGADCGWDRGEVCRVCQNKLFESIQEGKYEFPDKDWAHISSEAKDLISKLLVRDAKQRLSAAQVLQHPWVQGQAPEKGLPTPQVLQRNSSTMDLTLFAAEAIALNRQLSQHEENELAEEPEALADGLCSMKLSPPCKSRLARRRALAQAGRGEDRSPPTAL

Key:
[1] = target: Dual specificity testis-specific protein kinase 1 (Homo sapiens) (UniProt Q15569); test: Inhibition of TESK1 assessed as residual activity at 1 uM relative to control
[2] = target: Homeodomain-interacting protein kinase 2 (Homo sapiens) (UniProt Q9H2X6); test: Inhibition of HIPK2 assessed as residual activity at 10 uM relative to control
[3] = target: Aurora kinase B (Homo sapiens) (UniProt Q96GD4); test: Inhibition of Aurora B assessed as residual activity at 1 uM relative to control
[4] = target: MAP kinase-activated protein kinase 3 (Homo sapiens) (UniProt Q16644); test: Inhibition of MAPKAP-K3 assessed as residual activity at 1 uM relative to control
[5] = target: Mitogen-activated protein kinase 9 (Homo sapiens) (UniProt P45984); test: Inhibition of JNK2 assessed as residual activity at 10 uM relative to control
[6] = target: Ephrin type-B receptor 4 (Homo sapiens) (UniProt P54760); test: Inhibition of EPH-B4 assessed as residual activity at 1 uM relative to control
[7] = target: Calcium/calmodulin-dependent protein kinase type 1 (Homo sapiens) (UniProt Q14012); test: Inhibition of CAMK1 assessed as residual activity at 1 uM relative to control
[8] = target: Serine/threonine-protein kinase MARK1 (Homo sapiens) (UniProt Q9P0L2); test: Inhibition of MARK1 assessed as residual activity at 1 uM relative to control
[9] = target: Protein kinase C zeta type (Homo sapiens) (UniProt Q05513); test: Inhibition of PKCzeta assessed as residual activity at 10 uM relative to control
[10] = target: Serine/threonine-protein kinase BRSK2 (Homo sapiens) (UniProt Q8IWQ3); test: Inhibition of BRSK2 assessed as residual activity at 10 uM relative to control
[11] = target: Ribosomal protein S6 kinase alpha-3 (Homo sapiens) (UniProt P51812); test: Inhibition of RSK2 assessed as residual activity at 10 uM relative to control
[12] = target: Inhibitor of nuclear factor kappa-B kinase subunit epsilon (Homo sapiens) (UniProt Q14164); test: Inhibition of IKKepsilon assessed as residual activity at 1 uM relative to control
[13] = target: Dual specificity tyrosine-phosphorylation-regulated kinase 1A (Homo sapiens) (UniProt Q13627); test: Inhibition of DYRK1A assessed as residual activity at 10 uM relative to control
[14] = target: Aurora kinase A (Homo sapiens) (UniProt O14965); test: Inhibition of Aurora A assessed as residual activity at 1 uM relative to control
[15] = target: Mitogen-activated protein kinase 10 (Homo sapiens) (UniProt P53779); test: Inhibition of JNK3 assessed as residual activity at 10 uM relative to control
[16] = target: Mitogen-activated protein kinase 8 (Homo sapiens) (UniProt P45983); test: Inhibition of JNK1 assessed as residual activity at 1 uM relative to control
[17] = target: Rho-associated protein kinase 2 (Homo sapiens) (UniProt O75116); test: Inhibition of ROCK 2 assessed as residual activity at 10 uM relative to control
[18] = target: Mitogen-activated protein kinase 1 (Homo sapiens) (UniProt P28482); test: Inhibition of ERK2 assessed as residual activity at 10 uM relative to control
[19] = target: Mitogen-activated protein kinase 11 (Homo sapiens) (UniProt Q15759); test: Inhibition of p38beta MAPK assessed as residual activity at 10 uM relative to control
[20] = target: Ephrin type-A receptor 4 (Homo sapiens) (UniProt P54764); test: Inhibition of EPH-A4 assessed as residual activity at 1 uM relative to control
[21] = target: Dual specificity tyrosine-phosphorylation-regulated kinase 3 (Homo sapiens) (UniProt O43781); test: Inhibition of DYRK3 assessed as residual activity at 10 uM relative to control
[22] = target: Ephrin type-B receptor 3 (Homo sapiens) (UniProt P54753); test: Inhibition of EPH-B3 assessed as residual activity at 10 uM relative to control
[23] = target: Misshapen-like kinase 1 (Homo sapiens) (UniProt Q8N4C8); test: Inhibition of MINK1 assessed as residual activity at 1 uM relative to control
[24] = target: Serine/threonine-protein kinase PAK 2 (Homo sapiens) (UniProt Q13177); test: Inhibition of PAK2 assessed as residual activity at 10 uM relative to control
[25] = target: Serine/threonine-protein kinase tousled-like 1 (Homo sapiens) (UniProt Q9UKI8); test: Inhibition of TLK1 assessed as residual activity at 10 uM relative to control
[26] = target: Homeodomain-interacting protein kinase 1 (Homo sapiens) (UniProt Q86Z02); test: Inhibition of HIPK1 assessed as residual activity at 1 uM relative to control
[27] = target: Mitogen-activated protein kinase 3 (Homo sapiens) (UniProt P27361); test: Inhibition of ERK1 assessed as residual activity at 10 uM relative to control
[28] = target: Protein kinase C gamma type (Homo sapiens) (UniProt P05129); test: Inhibition of PKCgamma assessed as residual activity at 10 uM relative to control
[29] = target: MAP kinase-interacting serine/threonine-protein kinase 1 (Homo sapiens) (UniProt Q9BUB5); test: Inhibition of MNK1 assessed as residual activity at 1 uM relative to control
[30] = target: MAP/microtubule affinity-regulating kinase 4 (Homo sapiens) (UniProt Q96L34); test: Inhibition of MARK4 assessed as residual activity at 10 uM relative to control

Activity [1]: 120% | Activity [2]: 89% | Activity [3]: 114% | Activity [4]: 94% | Activity [5]: 62% | Activity [6]: 73% | Activity [7]: 94% | Activity [8]: 36% | Activity [9]: 99% | Activity [10]: 11% | Activity [11]: 15% | Activity [12]: 89% | Activity [13]: 77% | Activity [14]: 15% | Activity [15]: 38% | Activity [16]: 87% | Activity [17]: 40% | Activity [18]: 40% | Activity [19]: 92% | Activity [20]: 52% | Activity [21]: 94% | Activity [22]: 26% | Activity [23]: 72% | Activity [24]: 57% | Activity [25]: 114% | Activity [26]: 105% | Activity [27]: 53% | Activity [28]: 101% | Activity [29]: 106% | Activity [30]: 19%
SMILES: COc1cc(N2CCC(N3CCN(C)CC3)CC2)ccc1Nc1ncc(Cl)c(Nc2ccccc2S(=O)(=O)C(C)C)n1 [TAE-684]
